Where two headings read alike, the source gives them in different places.
What was measured:
[1] = tested on: relapsed leukemia or lymphoma; details: cited from earlier work
[2] = tested on: tumor targets K562 and Daudi; details: cited from earlier work
CD56 bright NK cells = details: cited from earlier work
high grade NHL = details: cited from earlier work
[3] = tested on: refractory or relapsed HD and NHL; details: five year follow-up, cited from earlier work
[4] = tested on: mononuclear cells from CLL patients; experiment: In vitro cytokine up-regulation of CD20, flow cytometry; type: cell-based, human; details: after only 24 hours, 500 to 1000 U/ml, preliminary data
Method: Another approach to improving response in CLL patients is to upregulate the CD20 antigen using cytokines. In an in vitro study, mononuclear cells from CLL patients were incubated for 24 hours with various cytokines.

[5] = tested on: relapsed or refractory NHL; experiment: Phase I/II study of IDEC-Y2B8; type: in vivo, human
Method: IDEC-Y2B8 (^90Y-ibritumomab tiuxetan) is a murine IgG1 kappa anti-CD20 antibody conjugated to ^90Y via a chelator, MX-DTPA, which is covalently bound to the antibody.
In a recently reported Phase I/II study (40-42), patients with low-grade NHL (N=34), intermediate-grade NHL (N=14), or mantle-cell lymphoma (N=3) were treated with IDEC-Y2B8. The median age was 60, 71% were male, and 96% were Caucasian. Of 51 patients with relapsed or refractory NHL, 34 (67%) responded to single doses of 0.2, 0.3, or 0.4 mCi/kg of IDEC-Y2B8. The ORR was 82% (28/34) for patients with low-grade or follicular NHL and was 43% (6/14) for patients with intermediate-grade lymphoma.

[6] = tested on: B-cell lymphoblastic tumor; details: mice harboring a B-cell lymphoblastic tumor; cited from earlier work

Molecule: IL-2: cytokine, IL-2 (Hoffman-LaRoche)
- survival ([1]; 29 allogeneic BMT patients, low dose IL-2, histological controls 30%): 70%
- in vitro killing of the NK targets K562 ([1]; low dose regimen): augmented
- median time of relapse after transplant ([2]; in vivo): 17.8 months
- tolerability ([2]; in vivo): well-tolerated
- median increase in lytic activity ([2]; tumor target Daudi): 6.5 fold
- median increase in lytic activity ([2]; tumor target K562): 5.9 fold
- absolute number of CD56 bright NK cells (CD56 bright NK cells; 0.45×10^6 U/M^2/day by 24 hour CIV for 12 weeks): able to expand
- toxicity (CD56 bright NK cells; human, in vivo): little toxicity
- disease progression (high grade NHL; 11 patients, median follow-up twenty-two months): None of the patients progressed
- total lymphocytes and CD16 and CD56 NK cells (high grade NHL; after 6 months of therapy): persistent and significant (p=0.001) increase
- patients with residual disease after ABMT who obtained a complete response (high grade NHL; after 7 and 10 months of IL-2 therapy): two
- probability of DFS ([3]; HD): 36%
- probability of survival ([3]; HD): 73%
- probability of DFS ([3]; NHL): 48%
- probability of survival ([3]; NHL): 70%
- probability of DFS ([3]; all 25 patients): 45%
- probability of survival ([3]; all 25 patients): 72%

Molecule: interferon alpha: cytokine with single-agent clinical activity in NHL
- CD20 on CLL cells [4]: upregulates CD20

B1: IDEC-Y2B8: murine IgG1 kappa anti-CD20 antibody conjugated to ^90Y via a chelator, MX-DTPA (conjugate, chains of the INN, looked up)
heavy: QAYLQQSGAELVRPGASVKMSCKASGYTFTSYNMHWVKQTPRQGLEWIGAIYPGNGDTSYNQKFKGKATLTVDKSSSTAYMQLSSLTSEDSAVYFCARVVYYSNSYWYFDVWGTGTTVTVSAPSVYPLAPVCGDTTGSSVTLGCLVKGYFPEPVTLTWNSGSLSSGVHTFPAVLQSDLYTLSSSVTVTSSTWPSQSITCNVAHPASSTKVDKKIEPRGPTIKPCPPCKCPAPNLLGGPSVFIFPPKIKDVLMISLSPIVTCVVVDVSEDDPDVQISWFVNNVEVHTAQTQTHREDYNSTLRVVSALPIQHQDWMSGKEFKCKVNNKDLPAPIERTISKPKGSVRAPQVYVLPPPEEEMTKKQVTLTCMVTDFMPEDIYVEWTNNGKTELNYKNTEPVLDSDGSYFMYSKLRVEKKNWVERNSYSCSVVHEGLHNHHTTKSFSR
light: QIVLSQSPAILSASPGEKVTMTCRASSSVSYMHWYQQKPGSSPKPWIYAPSNLASGVPARFSGSGSGTSYSLTISRVEAEDAATYYCQQWSFNPPTFGAGTKLELKRADAAPTVFIFPPSDEQLKSGTASVVCLLNNFYPREAKVQWKVDNALQSGNSQESVTEQDSKDSTYSLSSTLTLSKADYEKHKVYACEVTHQGLSSPVTKSFN
modifications: 90Y via MX-DTPA chelator
notes: murine IgG1 kappa anti-CD20 antibody conjugated to ^90Y via a chelator, MX-DTPA
- ORR ([5]; intermediate-grade lymphoma (6/14)): 43%
- ORR ([5]; low-grade or follicular NHL (28/34)): 82%
- response ([5]; mantle-cell disease (N=3)): No patients with mantle-cell disease responded
- patients who responded ([5]; single doses of 0.2, 0.3, or 0.4 mCi/kg, 51 patients, Rituximab 250 mg/m^2 prior): 67%
- tumor reduction [6]: significant tumor reduction

From patent US10113000B2, “Combination therapies for B-cell lymphomas comprising administration of anti-CD20 antibody” (BIOGEN INC., priority 1998, dated 2018)
